# From patent US11773146B2, “Disruption of the WAVE3 protein complex for suppression of invasion and metastasis” (UNIVERSITY OF GEORGIA RESEARCH FOUNDATION, INC., priority 2015, dated 2023)
# System: MDA-MB-231 and Hs578T cells
# Test: Cell proliferation with RAC1 inhibitor
# Type: cell-based
# Conditions: range of 1-50 μM
# Description: MDA-MB-231, Hs578T and T47D breast cancer cell lines were obtained directly from American Type Culture Collection (Rockville, Md.). MDA-MB-231 and T47D and have been verified using SNP-CGH (Teng Y, et al. Int J Cancer 2011 129:2825-2835) for characteristic cytogenetic changes. The ATCC Cell Authentication Testing service confirmed the identity of Hs578T using STR DNA fingerprinting analysis. Standard cell culture, transient transfections, RT-PCR, western blotting, immunoprecipitation (IP), flow cytometry, Biotin-Avidin pulldown, lentiviral transduction, cell proliferation and Transwell invasion assays were carried out as described previously (Teng Y, et al. Int J Cancer 2011 129:2825-2835; Teng Y, et al. J Biol Chem 2012 287:10051-10059; Teng Y, et al. Carcinogenesis 2013 34:1994-1999).
structure (smiles),measurement,value
CCN(CC)CCCC(C)Nc1nc(C)cc(Nc2ccc3nc(C)cc(N)c3c2)n1 (stereo not shown) [NSC23766],cell proliferation,without affecting cell proliferation; also recorded: does not affect proliferation

# Entries after “also recorded” stand apart in the source; their conditions may differ.
